Measurements published in paper PMC10242237 (Scientific Reports, 2023).

Assays:
Assay type in all cases: biochemical
[1] = target: SARS-CoV-2 PL^pro (Severe acute respiratory syndrome coronavirus 2, UniProt P0DTD1); test: IC50 determination for SARS-CoV-2 PLpro (Ac-LRGG-ACC substrate); settings: 100 nM enzyme, 10 µM substrate, 30 min incubation at 37 °C, non-reducing
[2] = target: SARS-CoV-2 nsp14 N7-MTase (Severe acute respiratory syndrome coronavirus 2, UniProt P0DTD1); test: Py-FLINT fluorescence assay of nsp14 N7-MTase
[3] = target: SARS-CoV-2 M^pro (Severe acute respiratory syndrome coronavirus 2, UniProt P0DTD1); test: IC50 determination for SARS-CoV-2 Mpro (QS1 substrate); settings: read-out: SARS-CoV-2 M^pro IC50; 100 nM enzyme, 50 µM substrate, 2 min incubation at room temperature, non-reducing

Row | Compound | IC50 [1] | IC50 [2] | IC50 [3]
1 | O=c1c2ccccc2[se]n1-c1ccc([N+](=O)[O-])cc1 [Compound 10] | 1880 ± 100 nM | 3080 ± 460 nM | 27.9 ± 5.1 nM
2 | O=c1c2ccccc2[se]n1-c1cc(Cl)ccc1F [Compound 17, 2-(5-chloro-2-fluorophenyl)-1,2-benzisoselenazol-3(2H)-one] | 2070 ± 80 nM | 3830 ± 350 nM | 15.2 ± 4.58 nM
3 | Cc1ccc(Cl)cc1-n1[se]c2ccccc2c1=O [Compound 20] | 1040 ± 80 nM |  | 37.8 ± 3.28 nM
4 | COc1ccc(-n2[se]c3ccccc3c2=O)c(OC)c1 [Compound 16] | 990 ± 60 nM | 420 ± 40 nM | 52.5 ± 4.51 nM
